US7126027B2, “N-[(1-dimethylaminocycloalkyl)methyl]benzamide derivatives” (Akzo Nobel N.V., priority 2002, dated 2006)
pIC50: −log10 of the molar value. Only a part of the results on these compounds is given; other tests are left out.

By UniProt entry, the sequences of proteins in these tests, tags left out.
UniProt Q9Y345, whole entry: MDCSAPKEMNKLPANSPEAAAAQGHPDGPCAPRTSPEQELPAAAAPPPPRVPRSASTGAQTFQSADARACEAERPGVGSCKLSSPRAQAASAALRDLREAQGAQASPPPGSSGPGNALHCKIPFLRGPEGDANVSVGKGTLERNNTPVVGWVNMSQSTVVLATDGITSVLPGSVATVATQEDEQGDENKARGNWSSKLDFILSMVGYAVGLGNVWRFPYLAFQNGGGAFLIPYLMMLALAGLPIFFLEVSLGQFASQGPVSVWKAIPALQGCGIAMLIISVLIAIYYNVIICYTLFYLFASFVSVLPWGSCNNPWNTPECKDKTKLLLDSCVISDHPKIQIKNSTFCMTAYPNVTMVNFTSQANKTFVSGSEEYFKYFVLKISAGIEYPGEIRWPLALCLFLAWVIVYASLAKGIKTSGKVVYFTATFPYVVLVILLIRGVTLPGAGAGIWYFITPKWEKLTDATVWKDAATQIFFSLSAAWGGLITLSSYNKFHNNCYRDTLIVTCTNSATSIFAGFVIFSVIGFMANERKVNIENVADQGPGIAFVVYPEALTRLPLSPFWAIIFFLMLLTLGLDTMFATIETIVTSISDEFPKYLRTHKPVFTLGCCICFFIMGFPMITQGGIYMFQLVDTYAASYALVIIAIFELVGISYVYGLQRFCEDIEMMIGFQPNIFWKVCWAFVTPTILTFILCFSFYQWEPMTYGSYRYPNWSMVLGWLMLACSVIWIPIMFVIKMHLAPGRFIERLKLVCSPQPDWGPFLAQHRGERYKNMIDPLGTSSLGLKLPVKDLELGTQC

Target: hGlyT-2 (Homo sapiens, UniProt Q9Y345)
Test: Glycine uptake assay, CHO cells stably transfected with hGlyT-2
Conditions: read-out: Inhibition of glycine transport by hGlyT-2 IC50, [3H]-glycine 30 μM, 37° C., 10 minutes
Experimental: Glycine uptake assays were performed as described by Morrow et al. (FEBS Lett. 1998, 439, 334–340) using CHO cells stably transfected with either hGlyT-1b or hGlyT-2. Cells were grown in 96 well microtitre plates (30,000 cells/well) for 24–48 hours before removal of culture medium and addition of Hanks Balanced Salt Solution (HBSS) containing [^3H]-glycine (30 μM) and varying concentrations of test compounds. Plates were incubated at 37° C. for 10 minutes and uptake terminated by washing three times with ice-cold HBSS. After removal of excess liquid, scintillation cocktail was added to each well, prior to counting in a plate counter. Data were analysed using the GraphPad Prism™ analysis package and the sigmoid dose-response curve fitting option to produce IC50 (the concentration of test compound producing 50% inhibition of uptake) values.

COc1cc(C(=O)NCC2(N(C)C)CCCCC2)cc(OC)c1OC
pIC50: < 5.00
